This is a selection; strong and weak results do not stand in their true shares. Results filed as inconclusive are left out. Activity calls are given as the source filed them. Calls come from the whole dose curve; as a rule, active = well fitted activation curve with a large enough effect; inconclusive = small, poorly fitted or top-dose-only effect; inactive = no such curve, though single readings can be large or run the other way.
Experiment: qHTS assay for re-activators of p53 using a Luc reporter; note: % of control where 0% means no effect; nearly all actives have a fitted effect of over 45% in size
Conditions: H1299 p53-A138V BP100-luciferase reporter, luminescence, 24 h; at 92.2 µM (top of the series)
From the text: The p53 tumor suppressor plays a key role in suppression of tumorigenesis and in human carcinogenesis. It is frequently found inactivated in human cancers, mainly by point mutation. These point mutations are found in a wide variety of human cancers and a majority of them affect the DNA binding domain of the protein. The point mutations either alter native p53 conformation or abolish DNA contact. Additionally, cancer cells with p53 mutations are more resistant to chemo-radiation therapies. In order to find activators to reactivate this important protein, a cell-based screen for p53-dependent luciferase-reporter expression was developed. A p53-null H1299 lung cancer cell line was stably co-transfected with a temperature sensitive p53 mutant, p53-A138V, and a p53-responsive BP100-luciferase reporter. This cell model has previously been characterized in a gene chip profiling experiment for p53 activation. […] At assay temperate, 37 deg C, basal reporter expression is very low and after the addition of detection reagent, a luminescent read-out is carried out. […]
5ul of 1000 cells per well are dispensed in all wells except column 4, into white solid-bottom TC-treated Kalypsys plates. […] Plates are incubated for 10 min at ambient room temperature and are then read on the ViewLux (Perkin Elmer) using a clear filter for a luminescent read-out.

SMILES	activity change, positive = activation
CCC(=O)N(c1ccccc1)C1(COC)CCN(CCc2cccs2)CC1	inactive: 4.04%
CCC(=O)N(c1ccccc1)C1(COC)CCN(CCn2nnn(CC)c2=O)CC1	inactive: 1.24%
